The term kcat/KM denotes the turnover number divided by the Michaelis constant.

In series [1] the test system is Lys(Dnp)-ATNATHNPRIVGG-Lys(Abz).
For series [2], the system named is Lys(Dnp)-ATNATKTPRIVGG-Lys(Abz).
The test system of series [3] is Lys(Dnp)-ATNATVGPRIVGG-Lys(Abz).
The test system of series [4] is Lys(Dnp)-DFLAEGGGPRIVGG-Lys(Abz).
Series [5] deals with Lys(Dnp)-ATNATX4X3PRIVGG-Lys(Abz), X4 = S, X3 = I.
For series [6], the system named is Lys(Dnp)-ATNATTGPRIVGG-Lys(Abz).
For series [7], the system named is Lys(Dnp)-ATNATEKPRIVGG-Lys(Abz).
The test system of series [8] is Lys(Dnp)-ATNATFLPRIVGG-Lys(Abz).
The test system of series [9] is Lys(Dnp)-ATNATGKPRIVGG-Lys(Abz).
Series [10] relates to Lys(Dnp)-ATNATDHPRIVGG-Lys(Abz).
Series [11] deals with Lys(Dnp)-ATNATLAPRIVGG-Lys(Abz).
In series [12] the test system is Lys(Dnp)-ATNATSQPRIVGG-Lys(Abz).
The subject of series [13] is Lys(Dnp)-ATNATX4X3PRIVGG-Lys(Abz), X4 = E, X3 = H.
The test system of series [14] is Lys(Dnp)-ATNATFWPRIVGG-Lys(Abz).
Series [15] relates to Lys(Dnp)-ATNATWIPRIVGG-Lys(Abz).
The subject of series [16] is Lys(Dnp)-ATNATX4X3PRIVGG-Lys(Abz), X4 = S, X3 = G.
The subject of series [17] is Lys(Dnp)-ATNATWFPRIVGG-Lys(Abz).
In series [18] the test system is Lys(Dnp)-ATNATX4X3PRIVGG-Lys(Abz), X4 = H, X3 = A.
Series [19] has as its system Lys(Dnp)-DFLAEGGGVRIVGG-Lys(Abz).
The subject of series [20] is Lys(Dnp)-ATNATINPRIVGG-Lys(Abz).
For series [21], the system named is Lys(Dnp)-ATNATQVPRIVGG-Lys(Abz).

Consider Human plasma purified alpha-thrombin, for which, in [1], the FIIa kcat/KM was found to be 800 M⁻¹ s⁻¹ and the Specificity Ratio (FIIa/FXa) came out at 11. Further, in series [2], the FIIa kcat/KM was 610 M⁻¹ s⁻¹ and the Specificity Ratio (FIIa/FXa) worked out at 8.
As for Human plasma purified α-thrombin, the FIIa kcat/KM in [3] came out at 5100 M⁻¹ s⁻¹; in [4], 40000 M⁻¹ s⁻¹; in series [5], 1100 M⁻¹ s⁻¹; in series [8], 9500 M⁻¹ s⁻¹; in series [10] it was 1000 M⁻¹ s⁻¹; in [11] it was 13000 M⁻¹ s⁻¹. Also, the FIIa kcat/KM was determined as 690 M⁻¹ s⁻¹ in [13]; 770 M⁻¹ s⁻¹ in series [16]; 2400 M⁻¹ s⁻¹ in [17]; 960 M⁻¹ s⁻¹ in series [18]; 410 M⁻¹ s⁻¹ in [19]; 10000 M⁻¹ s⁻¹ in [20]. The Specificity Ratio (FIIa/FXa) worked out at 103 in series [3]; 6910 in series [4]; 19 in series [5]; 18 in [8]; 200 in series [10]; 89 in series [13]. Further, the Specificity Ratio (FIIa/FXa) turned out to be 32 in [16]; 49 in [17]; 18 in [18]; 121 in series [19]; 12 in series [20]. Besides, the kcat/KM in series [3] amounted to 5100 M⁻¹ s⁻¹; in [6], 770 M⁻¹ s⁻¹; in [7], 650 M⁻¹ s⁻¹; in [8], 9500 M⁻¹ s⁻¹; in series [9], 1200 M⁻¹ s⁻¹; in series [11], 13000 M⁻¹ s⁻¹. In addition, the kcat/KM was 1200 M⁻¹ s⁻¹ in [12]; 1900 M⁻¹ s⁻¹ in series [15]; 2400 M⁻¹ s⁻¹ in [17]; 410 M⁻¹ s⁻¹ in series [19]; 5400 M⁻¹ s⁻¹ in series [21]. Further, the Functional Selectivity (Specificity*FIIa kcat/KM) in series [4] worked out at 2.8e+08; in series [11], 750000; in series [14], 1.1e+06; in [19], 49000.

For the origin of these results see patent publication US20160024487.
